The values that follow come from patent publication US20250304578A1, “NITROGEN-CONTAINING FUSED HETEROCYCLIC COMPOUNDS OF N-SULFONAMIDE AND USE THEREOF” (NUTSHELL THERAPEUTICS (SHANGHAI) CO., LTD., priority 2023, published 2025).

Sequences of proteins named here, by UniProt entry; tags and fusion partners are left off. A change or cut given only in a name is not applied to a line headed by its entry.
UniProt Q12809: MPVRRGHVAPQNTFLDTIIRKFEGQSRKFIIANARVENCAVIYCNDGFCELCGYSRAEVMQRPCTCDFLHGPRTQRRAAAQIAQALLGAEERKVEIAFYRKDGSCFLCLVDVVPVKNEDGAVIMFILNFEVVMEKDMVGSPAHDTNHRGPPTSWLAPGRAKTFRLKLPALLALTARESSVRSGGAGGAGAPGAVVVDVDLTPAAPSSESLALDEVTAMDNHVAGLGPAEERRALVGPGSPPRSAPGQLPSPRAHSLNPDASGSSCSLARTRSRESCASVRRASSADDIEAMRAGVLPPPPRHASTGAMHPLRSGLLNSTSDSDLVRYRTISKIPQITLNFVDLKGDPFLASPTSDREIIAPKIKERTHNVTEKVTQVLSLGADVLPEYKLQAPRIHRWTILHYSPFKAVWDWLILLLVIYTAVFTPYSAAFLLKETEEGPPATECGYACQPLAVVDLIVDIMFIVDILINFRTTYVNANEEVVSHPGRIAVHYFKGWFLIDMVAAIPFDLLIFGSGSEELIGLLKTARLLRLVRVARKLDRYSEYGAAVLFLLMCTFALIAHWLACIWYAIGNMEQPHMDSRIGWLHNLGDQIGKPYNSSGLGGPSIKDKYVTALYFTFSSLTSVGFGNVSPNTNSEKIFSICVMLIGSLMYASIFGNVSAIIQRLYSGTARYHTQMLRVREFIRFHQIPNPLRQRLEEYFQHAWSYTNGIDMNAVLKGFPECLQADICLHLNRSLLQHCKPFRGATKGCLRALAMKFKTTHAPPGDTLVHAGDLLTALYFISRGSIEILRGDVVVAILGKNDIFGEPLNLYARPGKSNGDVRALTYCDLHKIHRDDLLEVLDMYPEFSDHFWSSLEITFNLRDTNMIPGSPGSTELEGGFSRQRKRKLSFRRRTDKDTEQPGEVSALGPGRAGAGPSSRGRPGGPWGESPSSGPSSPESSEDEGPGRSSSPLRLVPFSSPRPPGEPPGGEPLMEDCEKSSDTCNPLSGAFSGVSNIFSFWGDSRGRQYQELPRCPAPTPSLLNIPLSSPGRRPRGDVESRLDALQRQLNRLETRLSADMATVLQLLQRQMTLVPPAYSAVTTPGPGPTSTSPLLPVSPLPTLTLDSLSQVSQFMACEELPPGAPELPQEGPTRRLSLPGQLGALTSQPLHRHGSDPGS

Series [1] addresses voltage-gated potassium channel hERG (Homo sapiens (Human), UniProt Q12809). As to the kind of experiment: hERG potassium channel inhibitory activity test (manual patch clamp, HEK293). (In general: Block of hERG is tested as a sign of cardiac risk.)
The subject of another series is CYP3A4/5. Nature of the series: Multi-concentration inhibitory activity curve of CYP3A4/5 enzymes. It is filed as in vitro ADME. As to conditions: pH 7.4, probe midazolam; human liver microsomes; substrate midazolam. On the procedure: The buffer was filtered through a 0.45 μm filter.
Liver microsome working solution (final system concentration of 0.5 mg/mL) was prepared. […] The above stock solution was diluted with acetonitrile (4-fold dilution, 6 non-zero concentrations).
The half-maximal inhibitory concentration (IC50) was calculated using Graph Pad Prism.
(Microsomes from liver hold many membrane-bound enzymes, among them those of drug oxidation.)

pIC50: −log10 of the molar value.

On to `COc1cc(S(C)(=O)=O)ccc1NCC#Cc1nc2c(N[C@@H]3CCN(C)C[C@@H]3F)cccn2c1CC(F)(F)F` [Cpd-B, reference compound], for which the negative logarithm of the IC50 (pIC50) (commonly the negative decadic logarithm of the IC50, by convention in mol/L) in series [1] was 5.26. In addition, the IC50 (usually the concentration at which inhibition is half-maximal) at 10 min in the series on CYP3A4/5 amounted to 5.8 µM.

`CNC(=O)c1ccc(NCC#Cc2cc3c(N[C@@H]4CCN(C)C[C@@H]4F)cccn3c2CC(F)(F)F)c(OC)c1` [Cpd-C, 4-((3-(8-(((3S,4R)-3-Fluoro-1-methylpiperidin-4-yl)amino)-3-(2,2,2-trifluoroethyl)indolizin-2-yl)prop-2-yn-1-yl)amino)-3-methoxy-N-methylbenzamide, reference compound] gave a negative logarithm of the IC50 (pIC50) in series [1] of 5.85.
